## Measured affinities in a library of Ab-95 light chain variants

Binding partner: SARS-CoV-2 spike HR2 peptide, sequence PDVDLGDISGINAS.

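AAYL52 was designed without a model: most single CDR substitutions and a random sample of double and triple ones. Affinity was read by AlphaSeq, a pooled yeast mating assay with surface-displayed partners. Mating (16 h, 30 °C) was followed by selection of diploids and sequencing of their barcodes. Read counts were normalised to the haploid input and turned into Kd by a linear fit to BCL2-family pairs of known affinity, for each replicate. Each pool was mated in three replicate cultures.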

Each scFv is VH, the linker GGGGSGGGGSGGGGS, VL, as in the parent Ab-95, and differs from it in the CDRs of the light chain only.
VH: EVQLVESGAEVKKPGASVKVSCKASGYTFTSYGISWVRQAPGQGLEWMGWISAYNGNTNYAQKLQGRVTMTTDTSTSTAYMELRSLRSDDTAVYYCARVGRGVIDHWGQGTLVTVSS
VL: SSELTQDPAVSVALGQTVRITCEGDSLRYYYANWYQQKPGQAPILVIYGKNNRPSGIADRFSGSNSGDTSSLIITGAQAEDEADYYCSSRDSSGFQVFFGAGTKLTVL

Each variant is given by its three light chain CDRs, as the data file delimits them; those of the parent are EGDSLRYYYAN, GKNNRPS, SSRDSSGFQVF. Affinities are written as log10 Kd with Kd in nM; a lower number is a better binder. Averages over replicates are reported, and they cover detected replicates only. A pair that was not seen in that replicate is written "nd"; this usually means weak binding, but a binder can also be missed.

For EGDSLRYYYAS / GKNNRPS / SERDSSGQQVF, the assay gave 3.59, 4.53, nd (mean 4.06; controls 2 of 9).
For EGDRLRYYYAN / VKNNRPS / SSRDSSGFQFF, the assay gave nd, 5.28, nd (controls 1 of 9).
For EGDSLRYWYAC / GKNNRPS / SSRDSHGFQVF, the assay gave 4.49, nd, nd (controls 4 of 9).
For EGDSLRYYYPN / GKNNRPS / DSRDSSGFQCF, the assay gave 2.04, 1.98, 1.16 (mean 1.72; controls 1 of 9).
For EGDSLRYYYAN / GKNNRPS / SSRDSHGFCVF, the assay gave nd, nd, nd (controls 5 of 9).
For EGDSLRYYYAN / IKNNRCS / SQRDSSGFQVF, the assay gave 4.25, 5.54, nd (mean 4.89; controls 5 of 9).
For EGDSLRYYYAN / GKNNRPE / SSHDRSGFQVF, the assay gave nd, 4.07, 3.49 (mean 3.78; controls 4 of 9).
For EVDSLRYYYAN / GKNNRRS / SSRDSSGFQVF, the assay gave nd, 5.37, nd (controls 3 of 9).
For EGDSLRYYMKN / GKNNRPS / SSRDSSGCQVF, the assay gave 4.56, 4.23, nd (mean 4.40; controls 1 of 9).
For EGDSLRYYYAN / GKNNRPS / SSRDSSGFQGW, the assay gave 5.43, nd, nd (controls 4 of 9).
For EGDSLRWYVAN / GKNNRPF / SSRDSSGFQVF, the assay gave nd, nd, nd (controls 2 of 9).
For EGASLCYYYAN / GKNNRPE / SSRDSSGFQVF, the assay gave 3.17, 2.44, 2.53 (mean 2.71; controls 0 of 9).
For ENDSLRYYYAN / GKNTRPS / SSRTSSGFQVF, the assay gave nd, nd, nd (controls 0 of 9).
For EGDSLRYYYAN / NKNNRPS / SSRDSQQFQVF, the assay gave 4.18, nd, nd (controls 3 of 9).
For EGDSLRYYYAN / FKNNNPS / SSFDSSGFQVF, the assay gave 4.02, nd, 3.93 (mean 3.98; controls 3 of 9).
For EGDSLRYYYAN / GKNNRPS / SLRDTSGFQVP, the assay gave 4.44, 3.10, 3.38 (mean 3.64; controls 1 of 9).
For EGDSLRYYYAN / GKNERPS / SSHDSSVFQVF, the assay gave 1.91, 1.95, 1.17 (mean 1.67; controls 4 of 9).
For EGDSLRYYYWN / GKNNRPS / SSADSDGFQVF, the assay gave nd, nd, nd (controls 1 of 9).
For EGDSLRKYYKN / GKNNRGS / SSRDSSGFQVF, the assay gave 3.09, 3.15, nd (mean 3.12; controls 0 of 9).
For EGDSLRYYYAN / GKNIRPS / SSRDSSEFQVG, the assay gave 4.49, nd, nd (controls 1 of 9).
For EKDSLRYYYAN / GINNRCS / SSRDSSGFQVF, the assay gave 4.99, nd, nd (controls 2 of 9).
For EKDSLRYYYAN / GKNNRPS / SSRDFSGYQVF, the assay gave nd, nd, nd (controls 2 of 9).
For EGDSLRYYYDN / GKNNRPS / SKRDSSMFQVF, the assay gave 3.59, nd, nd (controls 0 of 9).
For EGDSLRYYYAN / GKKNMPS / SSRDMSGFQVF, the assay gave 5.13, nd, nd (controls 2 of 9).
For EGDSLRYYYAN / GKNNRPS / SSRDTSGRQVF, the assay gave 2.19, 2.26, 2.21 (mean 2.22; controls 1 of 9).
For EGDSLRYWYAV / GKNNRPS / SSIDSSGFQVF, the assay gave 3.68, 4.10, nd (mean 3.89; controls 1 of 9).
For EGCSLRYYYAN / GKNLRPA / SSRDSSGFQVF, the assay gave nd, nd, nd (controls 0 of 9).
For EGDSLRYYGAN / GKNNRPS / SSRDSSSMQVF, the assay gave 2.11, 2.33, 2.34 (mean 2.26; controls 4 of 9).
For EGDVLRYYYAN / GKNNKPS / SSRCSSGFQVF, the assay gave nd, nd, nd (controls 0 of 9).
For EGDSLRYYYAN / GKNNRYS / SSRDSSRYQVF, the assay gave 2.92, nd, nd (controls 3 of 9).
For EGRDLRYYYKN / GKNNRPS / SSRDSSGFQVF, the assay gave nd, 5.06, nd (controls 2 of 9).
For YGDSLRYYYAN / GKNNRPR / SSRDSLGFQVF, the assay gave 3.65, 2.84, 3.05 (mean 3.18; controls 2 of 9).
For ESDSLRFTYAN / GKNNRPS / SSRDSSGFQVF, the assay gave 3.35, 2.37, 2.56 (mean 2.76; controls 3 of 9).
For EGDSLDIYYAN / GKHNRPS / SSRDSSGFQVF, the assay gave nd, 4.75, nd (controls 3 of 9).
For EGDSLRYYYAN / GKNNRPS / SSRDSSGIQVF, the assay gave 2.77, 2.31, 2.60 (mean 2.56; controls 2 of 9).
For EGGSLRYYYAN / GKNNRPS / SSWDSSGFQVF, the assay gave 2.79, 2.79, 1.51 (mean 2.37; controls 5 of 9).
For EGDSLRYHYAN / QKPNRPS / SSRDSSGFQVF, the assay gave 3.16, 4.10, 3.74 (mean 3.67; controls 2 of 9).
For EGESLVYYYAN / GKNNRPS / SSRDSSDFQVF, the assay gave 2.63, 3.19, 3.30 (mean 3.04; controls 1 of 9).
For PGDSLRYYYAN / GKNNRPS / SARDSSGGQVF, the assay gave 2.90, 2.07, 2.13 (mean 2.37; controls 5 of 9).
For EGDSLRYYYAN / GDNNRQS / SSRDSSGFQLF, the assay gave 5.05, 3.79, nd (mean 4.42; controls 2 of 9).
For EGDSWRNYYAN / GKNNRPW / SSRDSSGFQVF, the assay gave 3.62, 4.13, nd (mean 3.88; controls 2 of 9).
For EGDSLRYYYIN / GKNNRPG / SSRDSSGFQVY, the assay gave 2.38, 2.45, 2.03 (mean 2.29; controls 5 of 9).
For EGHSDRYYYAN / GQNNRPS / SSRDSSGFQVF, the assay gave 4.27, nd, 4.06 (mean 4.17; controls 2 of 9).
For EGDSLRYYYAN / GKNNRPS / SSSDWLGFQVF, the assay gave nd, 3.87, nd (controls 1 of 9).
For EGDELRYYLAN / GKNNRPS / SSRDSSGFQVV, the assay gave 4.10, nd, nd (controls 0 of 9).
For EGDSLRYYYAN / GKENRPS / SSLDSSGFQVD, the assay gave 3.05, 4.34, 4.33 (mean 3.91; controls 2 of 9).
For ESDSLTYYYAN / GKNNRPS / SVRDSSGFQVF, the assay gave 2.87, 2.44, 2.46 (mean 2.59; controls 3 of 9).
For EHDSLRYYYAN / GKNNRPS / NCRDSSGFQVF, the assay gave 2.59, 2.46, 2.04 (mean 2.36; controls 4 of 9).
For EGDSLRYYYAN / GKNNRFS / SYQDSSGFQVF, the assay gave 3.26, 3.87, 3.38 (mean 3.50; controls 3 of 9).
For EGVSLVYYYAN / GKNNRPS / SSRDSSGFFVF, the assay gave 3.37, 5.01, 4.16 (mean 4.18; controls 7 of 9).

Extract of 6 entries:

The variant EGDSLRYYYAN / GKNNRPS / SSSDWLGFQVF gave nd, 3.87, nd (controls 1 of 9).
The variant ENDSLRYYYAN / GKNTRPS / SSRTSSGFQVF gave nd, nd, nd (controls 0 of 9).
The variant EGDSLRYHYAN / QKPNRPS / SSRDSSGFQVF gave 3.16, 4.10, 3.74 (mean 3.67; controls 2 of 9).
The variant EGDSLRYYYAN / GKNNRPS / SLRDTSGFQVP gave 4.44, 3.10, 3.38 (mean 3.64; controls 1 of 9).
The variant EHDSLRYYYAN / GKNNRPS / NCRDSSGFQVF gave 2.59, 2.46, 2.04 (mean 2.36; controls 4 of 9).
The variant EVDSLRYYYAN / GKNNRRS / SSRDSSGFQVF gave nd, 5.37, nd (controls 3 of 9).

As a blank, each scFv also met three strains without target: over library AAYL52, 28% of these pairings were detected, typically at 3.91 and seldom below 2.90. The control count says in how many pairings with the empty strains this scFv gave a signal.

The measurements come from Engelhart et al. 2022 (doi:10.1038/s41597-022-01779-4) through the FLAb antibody collection.